# Test results: patent publication US20240254218A1, “COMPOSITIONS AND METHODS FOR TREATING NEURODEGENERATIVE DISEASES BY INHIBITING FSH” (ICAHN SCHOOL OF MEDICINE AT MOUNT SINAI, priority 2021, published 2024)
# System: 3xTg;Cebpb^+/− mice
# Experiment: FSH treatment of 3xTg and 3xTg;Cebpb+/- mice
# Assay type: in vivo, mouse
# Description: 3xTg mice were obtained from Jackson Laboratory (stock #34830). The mice harbor a human transgene with mutated APP^K670N/M671L and MAPT^P301L, and a knock-in mutation Psen1^M146V and display AD neuropathology and cognitive decline at about 3 to 4 months (Oddo, S. et al. Neuron 39, 409-421, (2003)), which is known to be accelerated upon ovariectomy. Mutant Cebpb mice (Sterneck, E., et al. Genes Dev 11, 2153-2162, (1997)) were maintained at Emory University as heterozygotes on C57BL/6 and 129Sv backgrounds. The two strains were crossed to generate viable F1 hybrid wild type and Cebpb^+/− littermates; the latter were then crossed with 3xTg mice to generate compound 3xTg;Cebpb^+/− and 3xTg;Cebpb^+/− mutants. APP/PS1 mice, which were generated and bred at Mount Sinai, harbor a human transgene comprising APPK^670N/M671L and PSEN1^ΔE9 (Minkeviciene, R. et al. J Neurochem 105, 584-594, (2008)). […] These mice, when bred on a pure C57BL/6J background, show evidence of sudden death due to seizure activity (Minkeviciene, R. et al. J Neurosci 29, 3453-3462, (2009)). Animal care and handling were performed according to NIH animal care guidelines at both Emory and Mount Sinai. The protocols were reviewed and approved by the respective Institutional Animal Care and Use Committees.
# Compound 3xTg;Cebpb^+/− mutants were generated on a C57BL/6 background by crossing 3xTg with Cebpb^+/− mice. 2.5- to 3-month-old compound mutants were treated with recombinant human FSH (5 IU/mouse) daily for 3 months. Of note is that Cebpb-mice were not utilized due to a potentially confounding metabolic phenotype (Millward, C. A. et al. Diabetes 56, 161-167, (2007)). […] Likewise, FSH-induced Cebpb, Lgmn, App and Mapt expression was attenuated in 3xTg;Cebpb^+/− mice compared with 3xTg littermates (FIG. 13A).
# [1] = 3xTg mice, FSH 5 IU/mouse daily, 3 months
substance,measurement,setting,value
"FSH: human recombinant follicle-stimulating hormone, a glycoprotein polypeptide hormone",Aβ and pTau signals in the hippocampus (immunohistochemistry),3xTg mice,enhanced
same,dendritic spine numbers upon FSH treatment,3xTg mice,marked decrements
same,AEP/δ-secretase activity,[1],markedly increased
same,"accumulation of APP^1-373 APP^1-585, Tau^1-368 and pTau",[1],led to the accumulation
same,Aβ and pTau signals in the hippocampus (immunohistochemistry),3xTg;Cebpb^+/− mice,sharply reduced
same,"all responses to FSH (AEP activity, APP/Tau fragments, pTau)",3xTg;Cebpb^+/− mice,attenuated
same,"FSH-induced Cebpb, Lgmn, App and Mapt expression",3xTg;Cebpb^+/− mice compared with 3xTg littermates,attenuated
